Antibody variant affinities, Ab-95 light chain, assay 2

From the AlphaSeq antibody data of Engelhart et al. 2022 (doi:10.1038/s41597-022-01779-4), copy in the FLAb collection.

Antigen: PDVDLGDISGINAS, a 14-residue peptide of the SARS-CoV-2 spike HR2 region.

Ab-95 is the parent antibody, in scFv form: VH, then the linker GGGGSGGGGSGGGGS, then VL. The heavy chain is unchanged in all variants.
VH: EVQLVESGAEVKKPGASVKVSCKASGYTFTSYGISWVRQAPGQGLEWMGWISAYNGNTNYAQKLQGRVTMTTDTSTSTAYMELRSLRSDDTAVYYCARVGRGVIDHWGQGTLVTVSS
VL: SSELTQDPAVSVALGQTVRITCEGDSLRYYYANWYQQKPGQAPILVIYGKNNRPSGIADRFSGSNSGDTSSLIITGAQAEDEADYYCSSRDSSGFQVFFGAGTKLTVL

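Phage display of a naive human antibody library on the peptide gave the parent. The library (AAYL52) carries one to three amino acid substitutions per variant, with no insertions or deletions. The assay is AlphaSeq: two haploid yeast populations carry antibody and antigen on their surface. Mating (16 h, 30 °C) was followed by selection of diploids and sequencing of their barcodes. A regression on co-assayed BCL2-family reference pairs converts the normalised counts of each replicate to an apparent Kd. There are three technical replicates.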

Changes read parent residue, position, new residue, counted from the first residue of the VL shown.
Values are log10 of the apparent Kd in nM; lower means stronger binding.
Replicates are averaged; those with no signal do not enter the mean.
A pair that was not seen in any replicate is written "not detected"; this usually means weak binding, but a binder can also be missed.
Three control strains display no target. For library AAYL52, 28% of the pairings with them gave a signal, with a median of 3.91 and one signal in twenty below 2.90, so weak values seen in few replicates may be background.

{"changes": "N33R/S55D/Q96I", "log10 Kd (nM), mean": "1.69", "replicates with signal": "3/3"}
{"changes": "S26G/R90V/F98R", "log10 Kd (nM), mean": "3.20", "replicates with signal": "2/3"}
{"changes": "A32F/G49Y/G94R", "log10 Kd (nM), mean": "3.68", "replicates with signal": "1/3"}
{"changes": "R53Q/S55P/S88V", "log10 Kd (nM), mean": "not detected", "replicates with signal": "0/3"}
{"changes": "L27Q/R53T/S88L", "log10 Kd (nM), mean": "4.67", "replicates with signal": "2/3"}
{"changes": "D25N/S55V/R90L", "log10 Kd (nM), mean": "not detected", "replicates with signal": "0/3"}
{"changes": "N33C/S89Q", "log10 Kd (nM), mean": "5.07", "replicates with signal": "1/3"}
{"changes": "S26F/R28N", "log10 Kd (nM), mean": "3.41", "replicates with signal": "2/3"}
{"changes": "E23Q/R53A/S92G", "log10 Kd (nM), mean": "3.11", "replicates with signal": "3/3"}
{"changes": "G24R/R53L/F95E", "log10 Kd (nM), mean": "3.26", "replicates with signal": "3/3"}
{"changes": "R28W/Y30P/F98M", "log10 Kd (nM), mean": "3.07", "replicates with signal": "2/3"}
{"changes": "S26A/S88F/Q96P", "log10 Kd (nM), mean": "4.37", "replicates with signal": "1/3"}
{"changes": "E23D/N52M/D91G", "log10 Kd (nM), mean": "2.87", "replicates with signal": "3/3"}
{"changes": "R28W/R53Q/V97A", "log10 Kd (nM), mean": "2.77", "replicates with signal": "2/3"}
{"changes": "Y29S/P54S/S55E", "log10 Kd (nM), mean": "2.76", "replicates with signal": "3/3"}
{"changes": "Y29M/N51M/F95E", "log10 Kd (nM), mean": "2.76", "replicates with signal": "1/3"}
{"changes": "G24A/R28I/G49R", "log10 Kd (nM), mean": "4.21", "replicates with signal": "2/3"}
{"changes": "A32L/D91R/V97R", "log10 Kd (nM), mean": "4.71", "replicates with signal": "1/3"}
{"changes": "L27C/R28V/S89Y", "log10 Kd (nM), mean": "3.02", "replicates with signal": "1/3"}
{"changes": "R28E/S93T", "log10 Kd (nM), mean": "2.42", "replicates with signal": "3/3"}
{"changes": "L27I/N52T/D91A", "log10 Kd (nM), mean": "4.14", "replicates with signal": "3/3"}
{"changes": "N33D/N51I/F95W", "log10 Kd (nM), mean": "4.23", "replicates with signal": "1/3"}
{"changes": "R53T/S55Y/S92V", "log10 Kd (nM), mean": "3.05", "replicates with signal": "3/3"}
{"changes": "A32M/D91W/F95K", "log10 Kd (nM), mean": "4.66", "replicates with signal": "1/3"}
{"changes": "K50H/R53M/V97L", "log10 Kd (nM), mean": "4.48", "replicates with signal": "1/3"}
{"changes": "G94N/F95K/V97Q", "log10 Kd (nM), mean": "3.15", "replicates with signal": "3/3"}

Repeated from above, the 4 best binders with a signal in all replicates:

changes,"log10 Kd (nM), mean",replicates with signal
N33R/S55D/Q96I,1.69,3/3
R28E/S93T,2.42,3/3
Y29S/P54S/S55E,2.76,3/3
E23D/N52M/D91G,2.87,3/3